Values of other authors as cited in paper PMC10776879, “In vitro screening of topical formulation excipients for epithelial toxicity in cancerous and non-cancerous cell lines” (EXCLI Journal, 2023).

Conditions: Table 1, physicochemical information of the excipients, source not given; cited from earlier work

Propylene glycol dicaprylocaprate [Labrafac®]
HLB: 1
